The source of these data is PubChem BioAssay AID1022 (Emory University Molecular Libraries Screening Center, 2008).

Protein sequences, listed by entry. Tags and fused reporters are not part of them.
UniProt Q07820, whole entry, looked up: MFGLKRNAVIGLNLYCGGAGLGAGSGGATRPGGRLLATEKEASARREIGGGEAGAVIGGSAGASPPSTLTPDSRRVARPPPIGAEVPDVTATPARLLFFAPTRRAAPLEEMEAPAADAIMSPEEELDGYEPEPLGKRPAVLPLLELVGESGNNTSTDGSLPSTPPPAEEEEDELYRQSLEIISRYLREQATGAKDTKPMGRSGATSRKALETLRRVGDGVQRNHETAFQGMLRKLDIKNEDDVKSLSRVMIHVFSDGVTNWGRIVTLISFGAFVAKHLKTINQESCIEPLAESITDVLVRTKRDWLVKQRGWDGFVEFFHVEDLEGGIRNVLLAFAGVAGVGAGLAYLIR

“And” between values parts separate entries of the source, which are not always exact repeats. Equal values may be shown once. This is a selection; strong and weak results do not stand in their true shares. The source made the active and inactive calls.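 The calls were made as follows: active = compounds that cut the protein-peptide binding signal by more than 50% relative to plate controls in a single-dose test; inactive = the rest.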

For this test, the target named is Induced myeloid leukemia cell differentiation protein Mcl-1 (Homo sapiens) (UniProt Q07820). Kind of test: disruptors of Mcl-1 and Noxa BH3 peptide – biochemical, TR-FRET, 1536-well, primary screen (AID 1022).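 Also: His-tagged Mcl-1 with rhodamine Noxa BH3 peptide and terbium anti-His antibody; 0% = Mcl-1 plus Noxa peptide wells and 100% = peptide-only wells.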 The settings on record: TR-FRET Mcl-1/Noxa peptide binding, 2 h; at 21.7 µM; hits give high values.
Take `O=[N+]([O-])c1ccc2c(c1)nnn2O`: the inhibition is inactive: 5.72%.
The figure for `CN(C(=O)Cc1ccccc1)[C@@H]1CC[C@]2(CCCO2)C[C@H]1N1CCCC1` is inactive: -1.49%; for `CCOP1(=S)c2c(C)nn(CCC#N)c2N=C(c2ccc(F)cc2)N1C` (centres undefined) it is inactive: 6.74%; for `NC(=O)Nc1ccc([As](=O)(O)O)cc1` it is inactive: 2.38%.
`O=C(O)COc1ccc([As](=O)(O)O)cc1[N+](=O)[O-]`: the inhibition is inactive: 21%.
The figure for `Nc1ccccc1[As](=O)(O)c1ccccc1` is inactive: -14.6%.
Then `CS(=O)(=O)c1cc([N+](=O)[O-])c2no[n+]([O-])c2c1`, with active: 61%; and `CCOP1(=S)c2c(C)nn(CCC#N)c2N=C(c2ccccc2F)N1C` (centres undefined), with inactive: 8.51%; and `O=P(Nc1nccs1)(Oc1ccccc1)Oc1ccccc1`, with inactive: 11%.
On to `O=P(Nc1nccs1)(c1ccccc1)c1nc2ccccc2s1` (centres undefined), for which the inhibition is inactive: -1.02%.
The figure for `COc1cc(C2NCCC3(OCCO3)C2(C)C)cc(OC)c1OC` (centres undefined) is inactive: 2.53%; for `CCOP(=O)(Nc1cccc2ccccc12)OCC` it is inactive: 3.18%; for `CCCOP(=S)(Nc1nc(N)cc(=O)[nH]1)OCCC` it is inactive: -95.4%.
The figure for `Cc1ccc(NCCc2c([N+](=O)[O-])cc([N+](=O)[O-])cc2[N+](=O)[O-])cc1` is inactive: -12.2%; for `Nc1cccc2c([As](=O)(O)O)cccc12` it is inactive: 11.5%; for `Cc1cccc(OCC(=O)OC2CN3CCC2CC3)c1` (centres undefined) it is inactive: -8.55%.
Then `O=[As](O)(c1cccc(O)c1)c1cccc(O)c1`, with inactive: 4.59%; and `O=[As](O)(O)c1cccnc1`, with inactive: -6.88%.
Regarding `COc1cc(C(=O)NCC2(N3CCOCC3)CCCCC2)cc(Cl)c1OC(C)C`, the inhibition is inactive: -1.53%.
The figure for `O=C(OC1CN2CCC1CC2)c1ccc(Cl)cc1` (centres undefined) is inactive: -1.55%; for `O=[As](O)(c1ccccc1Br)c1ccccc1Br` it is inactive: 3.55%.
The figure for `CC(C)/C=N\N=C(\N)N[N+](=O)[O-]` is inactive: 1.48%; for `Clc1n[nH]nc1-c1nn[nH][15n]1` it is inactive: 2.31%.
The figure for `CC(C)(C)C(=O)NC(Sc1ncccn1)C(Cl)(Cl)Cl` (centres undefined) is inactive: 1.36%; for `CCOP(=O)(Nc1ccc(C)cn1)OCC` it is inactive: 11.2%; for `O=P1(Nc2ccccn2)COc2ccccc2OC1` it is inactive: -1.92%.
In the case of `Cc1ccc(OCC(=O)OC2CN3CCC2CC3)cc1` (centres undefined), the inhibition is inactive: -7.43%.
The figure for `O=[As](O)(c1cccs1)c1cccs1` is inactive: -11.9%; for `O=P1(Nc2ccc(Br)cn2)COc2ccccc2OC1` it is inactive: -1.01%.
The figure for `Nc1cccc([As](=O)(O)c2ccccc2)c1` is inactive: -0.98%; for `O=P1(Nc2ncccn2)COc2ccccc2OC1` it is inactive: 1.44%.
Then `O=C(/C=C/c1ccccc1)OC1CN2CCC1CC2` (centres undefined), with inactive: -0.16%; and `CN(C)C1(CNC(=O)c2ccc(S(C)(=O)=O)cc2)CCCCC1`, with inactive: -21.5%.
For the molecule `Cc1nn(-c2ccccc2)c2c1P(=O)(N1CCOCC1)N(C)C(c1ccccc1)=N2` (centres undefined), the inhibition is inactive: -5.11%.
Then `CC1CCC(C(C)C)C(OP(=O)(Nc2ccccn2)c2ccccc2)C1` (centres undefined), with inactive: -10.7%.
Then `O=[N+]([O-])c1ccc(Nc2ccc(Oc3ccc([N+](=O)[O-])cc3[N+](=O)[O-])cc2)c([N+](=O)[O-])c1`, with inactive: -2.38%.
The figure for `Cc1cc(SC(NC=O)C(Cl)(Cl)Cl)ncn1` (centres undefined) is inactive: 4.4%.
For `O=P(Nc1ccccn1)(c1cccc2ccccc12)c1cccc2ccccc12`, the inhibition is inactive: 10.5%.
In the case of `CCOC(=O)Nc1cccc([As](=O)(O)O)c1`, the inhibition was inactive: 20.3%.
On to `Cc1cc(SC(NC(=O)c2ccccc2)C(Cl)(Cl)Cl)nc(C(C)C)n1` (centres undefined), for which the inhibition is inactive: -1.97%.
The figure for `CCOC(=O)Nc1ccc([As](=O)(O)O)c(O)c1` is inactive: 5.95%; for `CCC(C)N(CC(C)C)C(=S)SC(NC(C)=O)C(Cl)(Cl)Cl` (centres undefined) it is inactive: 1.16%; for `CCOC(=O)c1ccc(NC(=O)C(C)(CCl)SC)cc1` (centres undefined) it is inactive: 14.7%.
In the case of `O=C(COc1ccccc1)OC1CN2CCC1CC2` (centres undefined), the inhibition is inactive: 16.7%.
The figure for `COP1(=S)c2c(C)nn(CCC#N)c2N=C(c2ccc(F)cc2)N1C` (centres undefined) is inactive: 3.87%; for `COc1ccc(N/C(=N/P(=O)(N2CCOCC2)N2CCOCC2)N2CCOCC2)cc1` it is inactive: 3.06%; for `COc1ccc2nc(NP(=O)(c3ccccc3)c3ccccc3)sc2c1` it is inactive: 8.06%.
Then `COc1cc(I)ccc1[As](=O)(O)O`, with inactive: -3.02%; and `O=C(OC1CN2CCC1CC2)C12CC3CC(CC(C3)C1)C2` (centres undefined), with inactive: 11.7%.
The figure for `Cc1cc(=O)[nH]c(N[N+](=O)[O-])n1` is inactive: -1.14%.
Consider `Cc1c2c(nc3ccccc13)SC(C(Cl)Cl)C2` (centres undefined), for which the inhibition is inactive: 9.33%.
The figure for `CC(C)NC(=O)NP(=O)(Oc1ccccc1)Oc1ccccc1` is inactive: 6.96%; for `CCN(CC)C(=S)SC(NC=O)C(Cl)(Cl)Cl` (centres undefined) it is inactive: 13.1%.
Then `O=[N+]([O-])c1cc([N+](=O)[O-])c(-c2ccn[nH]2)s1`, with active: 54.7%.
With `CC(C)c1ccc(OP(=O)(Nc2ccccn2)Oc2ccccc2F)cc1` (centres undefined), the inhibition is inactive: 6.4%.
The figure for `ClCCSc1nnc(-c2cccnc2)o1` is inactive: -3.42%; for `Cc1ccc2nc3c(c(C)c2c1)CC(C(Cl)Cl)S3` (centres undefined) it is inactive: -3.22%; for `Cc1ccc(OP(=O)(Nc2ccc([N+](=O)[O-])cn2)Oc2ccc(C)cc2)cc1` it is inactive: 20.7%.
The figure for `C[As](=O)(O)c1cccc(C(=O)O)c1` is inactive: 7.83%.
The figure for `O=[As](O)(c1ccc(O)cc1)c1ccccc1O` is inactive: 7.66%; for `CCN(N=Nc1nonc1N)c1nonc1N` it is inactive: 10.5%.
As for `Nc1cccc2ccc([As](=O)(O)O)cc12`, the inhibition is inactive: 1.09%.
The figure for `Cc1cc(SC(NC(=O)c2ccc(F)cc2)C(Cl)(Cl)Cl)ncn1` (centres undefined) is inactive: 23.5%; for `CCOP(=O)(Nc1ccccc1)OCC` it is inactive: -3.08% and inactive: -7.14%.
Then `Cc1ccc(NP(=O)(Oc2ccccc2F)Oc2ccccc2F)nc1`, with inactive: -6.86%; and `CC(=O)Nc1ccc([As](=O)(O)O)cc1`, with inactive: 0.21%; and `O=C(O)c1ccccc1[As](=O)(O)O`, with inactive: 6.7%.
The figure for `O=P(Nc1nc2ccc(Cl)cc2s1)(c1ccccc1)c1ccccc1` is inactive: -97.2%.
On to `Nc1cc(N)c2nonc2c1[N+](=O)[O-]`, for which the inhibition is inactive: 9.04%.
Then `CC(C)CC(=O)NC(Sc1ccc(Cl)cc1)C(Cl)(Cl)Cl` (centres undefined), with inactive: -6.65%; and `Oc1ccccc1CNc1ccccn1`, with inactive: -1.66%; and `O=C(NC(Sc1ccncn1)C(Cl)(Cl)Cl)c1ccccc1` (centres undefined), with inactive: 7.98%.
Then `Cc1c2non([O-])c-2c(C)[n+](=O)[n+]1[O-]`, with inactive: 31%; and `COc1ccccc1OP(=O)(Nc1ccc(C)cn1)Oc1ccccc1OC`, with inactive: -16.8%; and `Cc1ccc(OP(=O)(Nc2nccs2)Oc2ccc(C)cc2)cc1`, with inactive: -0.29%.
Take `CN1CCCC(OC(=O)C(c2ccccc2)c2ccccc2)C1` (centres undefined): the inhibition is inactive: 21.3%.
The figure for `Clc1ccc(Cl)c(NC2=NCC(CBr)S2)c1` (centres undefined) is inactive: 12.9%; for `NC(=O)c1cc([N+](=O)[O-])cc([N+](=O)[O-])c1N` it is inactive: 14.5%; for `Cc1ccc(N/C(=N/P(=O)(N2CCOCC2)N2CCOCC2)N2CCOCC2)cc1` it is inactive: 5.18%.
For `CC(C)=N/N=C(\N)N[N+](=O)[O-]`, the inhibition was inactive: -18.6%.
Then `CN(C)C(=O)OCCc1n(C)cc[n+]1C`, with inactive: 1.08%; and `CC1CCN(C(=O)Oc2c(Cl)cc(Cl)c3cccnc23)CC1`, with inactive: -2.01%; and `Nc1ccc([As](=O)(O)c2ccc(N)cc2)cc1`, with inactive: 3.34%.
The figure for `C[N+]1=C2C=CC=CC=C2SC12C([N+](=O)[O-])=CC([N+](=O)[O-])=C[C-]2[N+](=O)[O-]` (centres undefined) is active: 55.4%; for `CCN(/C(=N/P(=O)(N1CCOCC1)N1CCOCC1)N1CCOCC1)c1ccc(OC)cc1` it is inactive: 3.09%; for `CC(=O)N1C2C3N(C(C)=O)C1C1N(C(C)=O)C(C(N1C(C)=O)N3C(C)=O)N2C(C)=O` it is inactive: -10.1%.
Then `O=[N+]([O-])c1cccc2n[nH]nc12`, with inactive: 25%.
In the case of `Cc1ccc(NP(=O)(Oc2ccccc2)Oc2ccccc2)nc1`, the inhibition is inactive: 0.24%.
Then `O=[N+]([O-])c1cc([N+](=O)[O-])c(CCNc2ccccc2)c([N+](=O)[O-])c1`, with inactive: 19.1%; and `CCc1nc2c(n1)c1c(non1O)c1c2no[n+]1[O-]`, with inactive: 4.38%.
The figure for `COc1ccc(C2=NCC(CBr)S2)cc1` (centres undefined) is inactive: 8.58%; for `O=[N+]([O-])c1cccc(NC2=NCC(CBr)S2)c1` (centres undefined) it is inactive: 5.05%; for `O=C(O)CNc1ccc([As](=O)(O)O)cc1` it is inactive: 28.2%.
The figure for `CC(C)(C)C(=O)NC(Sc1ccncn1)C(Cl)(Cl)Cl` (centres undefined) is inactive: 3.61%.
Take `O=[N+]([O-])c1ncn(CCn2ncnc2[N+](=O)[O-])n1`: the inhibition is inactive: 6.95%.
The figure for `O=C(Nc1cc([As](=O)(O)O)ccc1O)c1ccccc1` is inactive: 10.8%; for `C(Cc1nn[nH]n1)Cc1nn[nH]n1` it is inactive: -25%.
The figure for `Nc1ccc([As](=O)(O)c2ccc([N+](=O)[O-])cc2)cc1` is inactive: -13%; for `O=C(OC1CN2CCC1CC2)c1cccc(Cl)c1` (centres undefined) it is inactive: 11.4%; for `CC(=O)NC(SC(=S)N(C)C)C(Cl)(Cl)Cl` (centres undefined) it is inactive: 0.6%.
The figure for `O=[N+]([O-])c1ncn(CCn2cnc([N+](=O)[O-])n2)n1` is inactive: -12.4%; for `O=[As](O)(c1ccccc1)c1ccc(O)cc1` it is inactive: -2.16%.
Turning to `O=P(Nc1nc2ccccc2s1)(c1ccccc1)c1ccccc1`, the inhibition was inactive: 8.94%.
Turning to `C[C@H]1OP(=O)(Oc2ccccc2)[C@H](O)[C@H](O)[C@H]1N=[N+]=[N-]` (some centres undefined), the inhibition was inactive: 8.93%.
